ChEMBL document CHEMBL1140164, “Isosorbide-2-carbamate esters: potent and selective butyrylcholinesterase inhibitors” (J Med Chem, 2008)

The chains behind the UniProt entries cited, without tags or fusion partners.
UniProt P06276, whole entry: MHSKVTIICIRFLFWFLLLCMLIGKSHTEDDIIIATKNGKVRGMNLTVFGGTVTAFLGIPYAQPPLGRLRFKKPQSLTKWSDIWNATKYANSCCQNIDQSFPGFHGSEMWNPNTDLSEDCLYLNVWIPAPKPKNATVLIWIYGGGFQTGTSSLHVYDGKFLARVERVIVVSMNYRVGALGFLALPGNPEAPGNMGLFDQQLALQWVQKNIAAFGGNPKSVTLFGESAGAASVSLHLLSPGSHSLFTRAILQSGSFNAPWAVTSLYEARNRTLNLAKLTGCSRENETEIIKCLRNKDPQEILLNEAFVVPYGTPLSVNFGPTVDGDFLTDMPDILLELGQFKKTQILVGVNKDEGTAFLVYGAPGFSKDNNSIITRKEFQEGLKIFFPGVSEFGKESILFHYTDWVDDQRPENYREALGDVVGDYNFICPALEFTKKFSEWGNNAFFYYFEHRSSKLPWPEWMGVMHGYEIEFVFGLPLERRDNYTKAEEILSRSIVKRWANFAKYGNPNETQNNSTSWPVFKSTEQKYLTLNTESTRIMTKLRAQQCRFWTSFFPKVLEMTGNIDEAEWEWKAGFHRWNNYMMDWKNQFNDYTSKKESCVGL

Molecular target: Cholinesterase (Homo sapiens, UniProt P06276)
Assay: Inhibition of human plasma BuchE by Ellman's method
Format: cell-free

| SMILES | IC50 [µM] |
| --- | --- |
| C=CC[N+](C)(C)c1ccc(CCC(=O)CCc2ccc([N+](C)(C)CC=C)cc2)cc1 | 255 |
| CC(C)NP(=O)(NC(C)C)OP(=O)(NC(C)C)NC(C)C [TETRAISOPROPYL PYROPHOSPHORAMIDE] | 0.733 |
